{"sequences": {"note": "Protein sequences, listed by entry. Tags and fused reporters are not part of them.", "UniProt P50750, whole entry": "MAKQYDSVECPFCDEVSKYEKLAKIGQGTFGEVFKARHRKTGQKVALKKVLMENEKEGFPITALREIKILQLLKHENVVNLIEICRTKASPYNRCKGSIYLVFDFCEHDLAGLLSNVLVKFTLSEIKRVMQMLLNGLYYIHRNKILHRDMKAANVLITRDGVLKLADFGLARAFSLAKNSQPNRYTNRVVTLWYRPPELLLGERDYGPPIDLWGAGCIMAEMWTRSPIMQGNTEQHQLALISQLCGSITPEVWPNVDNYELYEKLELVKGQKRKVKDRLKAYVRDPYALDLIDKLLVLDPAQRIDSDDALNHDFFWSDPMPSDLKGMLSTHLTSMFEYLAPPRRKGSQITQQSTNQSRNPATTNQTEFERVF", "UniProt O60563, whole entry partner": "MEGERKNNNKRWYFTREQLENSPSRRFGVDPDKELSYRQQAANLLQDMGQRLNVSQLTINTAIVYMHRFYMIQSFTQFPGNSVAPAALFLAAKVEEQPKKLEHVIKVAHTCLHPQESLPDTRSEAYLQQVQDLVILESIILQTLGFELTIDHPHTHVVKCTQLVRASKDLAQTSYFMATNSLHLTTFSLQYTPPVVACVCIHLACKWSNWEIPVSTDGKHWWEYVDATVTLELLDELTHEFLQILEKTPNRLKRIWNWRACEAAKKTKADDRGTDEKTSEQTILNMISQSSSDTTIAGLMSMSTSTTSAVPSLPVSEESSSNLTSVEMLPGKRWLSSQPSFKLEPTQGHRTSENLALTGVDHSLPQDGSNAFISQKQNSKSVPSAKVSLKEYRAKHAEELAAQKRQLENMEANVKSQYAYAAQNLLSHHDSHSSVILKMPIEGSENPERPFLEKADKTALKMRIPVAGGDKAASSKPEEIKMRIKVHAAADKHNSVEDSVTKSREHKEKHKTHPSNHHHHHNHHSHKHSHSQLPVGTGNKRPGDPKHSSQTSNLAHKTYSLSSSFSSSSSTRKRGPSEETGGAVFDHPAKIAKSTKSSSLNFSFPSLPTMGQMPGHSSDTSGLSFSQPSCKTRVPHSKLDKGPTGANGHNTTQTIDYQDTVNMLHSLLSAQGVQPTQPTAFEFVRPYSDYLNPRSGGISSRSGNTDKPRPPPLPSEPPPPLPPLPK"}, "source": "patent US11155560B2", "about": "“Substituted pyrazolo[1,5-a]pyrimidines for modulating CDK9 activity” (Kronos Bio, Inc., priority 2018, dated 2021)", "target": "CDK9/cyclin T1 (Homo sapiens, UniProt P50750)", "test": "CDK9/cyclin T1 kinase inhibition, LANCE assay", "assay_type": "biochemical", "details": "read-out: CDK9/cyclin T1 Potency Grade, reaction time 60 minutes, 10 μM ATP, 10-dose IC50, compounds 35-126 (127-208 listed, method not stated)", "data": [{"compound": "CC(C)Cc1cc(N[C@H]2CC[C@H](N)C2)n2ncc(Cl)c2n1", "note": "[Compound 76]", "values": [{"measurement": "IC50", "result": "1 to 500", "unit": "nM"}]}, {"compound": "CC(C)c1cc(N[C@@H]2CC[C@@H](N(C)C=O)C2)n2nccc2n1", "note": "[Compound 146]", "values": [{"measurement": "IC50", "result": "1 to 500", "unit": "nM"}]}]}
